From patent US11312688B2, “Pyrazole compound” (Sumitomo Dainippon Pharma Co., Ltd., priority 2011, dated 2022)

Amino acid sequences for entries named in this document (tags omitted). A change or cut given only in a name is not applied to a line headed by its entry.
UniProt P28335: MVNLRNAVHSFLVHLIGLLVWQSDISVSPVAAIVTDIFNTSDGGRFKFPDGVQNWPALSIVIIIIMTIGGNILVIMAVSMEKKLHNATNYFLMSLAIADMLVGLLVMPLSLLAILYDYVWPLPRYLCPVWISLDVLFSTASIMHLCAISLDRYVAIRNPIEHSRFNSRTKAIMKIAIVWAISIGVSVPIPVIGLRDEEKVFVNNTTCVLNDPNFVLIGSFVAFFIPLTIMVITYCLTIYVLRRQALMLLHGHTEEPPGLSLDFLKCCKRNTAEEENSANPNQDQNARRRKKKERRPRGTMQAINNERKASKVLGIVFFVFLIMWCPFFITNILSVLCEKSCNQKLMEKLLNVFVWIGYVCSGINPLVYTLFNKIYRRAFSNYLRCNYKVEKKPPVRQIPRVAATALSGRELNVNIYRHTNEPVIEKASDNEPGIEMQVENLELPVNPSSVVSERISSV

Legend:
[1] = biological target: T1, human serotonin 2C receptor (h-5-HT2C) (Homo sapiens (Human), UniProt P28335); experiment: 5-HT2C receptor agonistic action assay (FLIPR Calcium 4, h-5-HT2C/CHO cells; agonistic / inverse agonistic action); format: cell-based; conditions: Test Ex. 3; test material 10 μmol/L; 100% = 10 μmol/L 5-HT, −100% = 10 μmol/L SB206553; below 0% = inverse agonistic action
Method: 3-1. The Cells and Inoculation Thereof
In the experiment, human serotonin 2C receptor (h-5-HT2C) was expressed in CHO cells (h-5-HT2C/CHO). The cells were incubated with UltraCHO Lipuid (trademark) (manufactured by BioWhitakker) containing 1% FBS, 400 μg/mL Geneticin, 100 U/mL penicillin-100 μg/mL streptomycin (all manufactured by Sigma Aldrich) and 250 μg/mL Zeosin (manufactured by InvivoGen) in an incubator containing 5% CO2. On the day before using the cells, they were detached and collected using 250 μg/mL Trypsin solution (manufactured by Nacalai Tesque), then inoculated in a 96 well flat clear bottom black polystyrene TC-treated microplates (manufactured by Corning) at 40000 cells/well/60 μL in an incubator containing 5% CO2 for 16 hours to 24 hours.
3-2. 5-HT2C Receptor Agonistic Action Assay
The 5-HT2C receptor agonistic action was evaluated with FLIPR Calcium 4 Assay kit (manufactured by Molecular Devices). […] Then, the cells were set in FLIPR TETRA (trademark) (manufactured by Molecular Devices), to the cells was added the test material diluted with HHBP buffer, 2.5 mmol/L Probenecid (manufactured by Sigma) (concentration after dilution: 10 μmol/L) at an amount of 20 μL/well, and the fluorescence was measured. Then, in order to evaluate the antagonistic action of the test material, 20 μL/well of 5-HT solution (manufactured by Sigma, final concentration: 0.1 nmol/L) was further added to the cells, and the fluorescence was measured.
The 5-HT2C receptor agonistic action of each test material was calculated as a rate of fluorescence enhancement wherein 100% was defined as a value when the cells were given 10 μmol/L 5-HT. Furthermore, the 5-HT2C receptor inverse agonistic action was calculated as a rate of fluorescence decay wherein −100% was defined as a value when the cells were given 10 μmol/L SB206553 (manufactured by Sigma Aldrich). […]

[2] = biological target: human serotonin transporter (h-SERT) (Homo sapiens (Human), UniProt P31645); experiment: [3H] citalopram binding assay to evaluate human serotonin reuptake inhibitory action (h-SERT binding assay); conditions: h-SERT binding inhibition constant Ki, Test Ex. 1
[3] = biological target: T1, human serotonin 2C receptor (h-5-HT2C); experiment: [3H] mesulergine binding assay to evaluate affinity for human 5-HT2C receptor; conditions: Test Ex. 2, h-5-HT2C/CHO membrane preparation, read-out: 5-HT2C receptor binding inhibition constant Ki

CNCc1cc(OCc2cc(F)ccc2F)n(CCC(C)C)n1 [Example 269, 1-{5-[(2,5-difluorobenzyl)oxy]-1-(3-methylbutyl)-1H-pyrazol-3-yl}-N-methylmethanamine]
5-HT2C receptor agonistic action [1]: −77%

CNC(C)c1cc(OCc2cc(F)ccc2F)n(CCC2CCCC2)n1 (single isomer, unassigned; (-)) [Example 476, (−)-1-{1-(2-cyclopentylethyl)-5-[(2,5-difluorobenzyl)-oxy]-1H-pyrazol-3-yl}-N-methylethanamine]
Ki [2]: 14 nM | Ki [3]: 2.3 nM

CNC(C)c1cc(OCc2cc(F)ccc2F)n(CCC2CCCC2)n1 (single isomer, unassigned; (+)) [Example 477, (+)-1-{1-(2-cyclopentylethyl)-5-[(2,5-difluorobenzyl)-oxy]-1H-pyrazol-3-yl}-N-methylethanamine]
Ki [2]: 9.9 nM | Ki [3]: 3.1 nM

CNCc1cc(OCc2cc(F)ccc2F)n(CC(C)(C)C)n1 [Example 258, 1-{5-[(2,5-difluorobenzyl)oxy]-1-(2,2-dimethylpropyl)-1H-pyrazol-3-yl}-N-methylmethanamine]
5-HT2C receptor agonistic action [1]: −118%

CNCc1cc(OCc2cc(Cl)ccc2F)n(CC2CC2)n1 [Example 131, 1-{5-[(5-chloro-2-fluorobenzyl)oxy]-1-(cyclopropylmethyl)-1H-pyrazol-3-yl}-N-methylmethanamine]
5-HT2C receptor agonistic action [1]: −70%
